# Results from US12171806B2, “Therapeutic regimens and methods for lowering blood glucose and/or body weight using GLP-1R and GCGR balanced agonists” (priority 2021, dated 2024).
# Assay: Phase 1 MAD study of ALT-801: adverse events (TEAEs), safety overview
smiles,measurement,setting,value
"CC[C@H](C)[C@H](NC(=O)[C@H](Cc1ccccc1)NC(=O)[C@H](CCC(=O)O)NC(=O)[C@@H]1CCCCNC(=O)CC[C@H](NC(=O)[C@H](CC(=O)O)NC(=O)[C@H](CC(C)C)NC(=O)[C@H](Cc2ccc(O)cc2)NC(=O)[C@H](CCCCN)NC(=O)[C@H](CO)NC(=O)[C@H](Cc2ccc(O)cc2)NC(=O)[C@H](CC(=O)O)NC(=O)[C@H](CO)NC(=O)[C@@H](NC(=O)[C@H](Cc2ccccc2)NC(=O)[C@@H](NC(=O)CNC(=O)[C@H](CCC(N)=O)NC(=O)C(C)(C)NC(=O)[C@@H](N)Cc2c[nH]cn2)[C@@H](C)O)[C@@H](C)O)C(=O)N[C@@H](CCCCNC(=O)[C@H]2O[C@@H](OCCCCCCCCCCCCCCCCCC(=O)O)[C@H](O)[C@@H](O)[C@@H]2O)C(=O)N[C@@H](C)C(=O)N[C@@H](C)C(=O)N1)C(=O)N[C@@H](CCC(N)=O)C(=O)N[C@@H](Cc1c[nH]c2ccccc12)C(=O)N[C@@H](CC(C)C)C(=O)N[C@@H](CC(C)C)C(=O)N[C@@H](CCC(N)=O)C(=O)N[C@H](C(N)=O)[C@@H](C)O [ALT-801, pemvidutide]",TEAE Injection site bruising; PLT; n,M3 2.4 mg (N = 11),0
same,TEAE Injection site bruising; Severe; %,M3 2.4 mg (N = 11),(0.0%)
same,TEAE Injection site bruising; Severe; n,M3 2.4 mg (N = 11),0
same,TEAE Injection site dermatitis; Mild; %,M3 2.4 mg (N = 11),(0.0%)
same,TEAE Injection site dermatitis; Mild; n,M3 2.4 mg (N = 11),0
same,TEAE Injection site dermatitis; Moderate; %,M3 2.4 mg (N = 11),(0.0%)
same,TEAE Injection site dermatitis; Moderate; n,M3 2.4 mg (N = 11),0
same,TEAE Injection site dermatitis; PLT; %,M3 2.4 mg (N = 11),(0.0%)
same,TEAE Injection site dermatitis; PLT; n,M3 2.4 mg (N = 11),0
same,TEAE Injection site dermatitis; Severe; %,M3 2.4 mg (N = 11),(0.0%)
same,TEAE Injection site dermatitis; Severe; n,M3 2.4 mg (N = 11),0
same,TEAE Nausea; Mild; %,M3 2.4 mg (N = 11),(45.5%)
same,TEAE Nausea; Mild; n,M3 2.4 mg (N = 11),5
same,TEAE Nausea; Moderate; %,M3 2.4 mg (N = 11),(45.5%)
same,TEAE Nausea; Moderate; n,M3 2.4 mg (N = 11),5
same,TEAE Nausea; PLT; %,M3 2.4 mg (N = 11),(0.0%)
same,TEAE Nausea; PLT; n,M3 2.4 mg (N = 11),0
same,TEAE Nausea; Severe; %,M3 2.4 mg (N = 11),(0.0%)
same,TEAE Nausea; Severe; n,M3 2.4 mg (N = 11),0
same,TEAE Palpitation; Mild; %,M3 2.4 mg (N = 11),(9.1%)
same,TEAE Palpitation; Mild; n,M3 2.4 mg (N = 11),1
same,TEAE Palpitation; Moderate; %,M3 2.4 mg (N = 11),(0.0%)
same,TEAE Palpitation; Moderate; n,M3 2.4 mg (N = 11),0
same,TEAE Palpitation; PLT; %,M3 2.4 mg (N = 11),(0.0%)
same,TEAE Palpitation; PLT; n,M3 2.4 mg (N = 11),0
same,TEAE Palpitation; Severe; %,M3 2.4 mg (N = 11),(0.0%)
same,TEAE Palpitation; Severe; n,M3 2.4 mg (N = 11),0
same,TEAE Peripheral swelling; Mild; %,M3 2.4 mg (N = 11),(0.0%)
same,TEAE Peripheral swelling; Mild; n,M3 2.4 mg (N = 11),0
same,TEAE Peripheral swelling; Moderate; %,M3 2.4 mg (N = 11),(0.0%)
same,TEAE Peripheral swelling; Moderate; n,M3 2.4 mg (N = 11),0
same,TEAE Peripheral swelling; PLT; %,M3 2.4 mg (N = 11),(0.0%)
same,TEAE Peripheral swelling; PLT; n,M3 2.4 mg (N = 11),0
same,TEAE Peripheral swelling; Severe; %,M3 2.4 mg (N = 11),(0.0%)
same,TEAE Peripheral swelling; Severe; n,M3 2.4 mg (N = 11),0
same,TEAE Rectal haemorrhage; Mild; %,M3 2.4 mg (N = 11),(9.1%)
same,TEAE Rectal haemorrhage; Mild; n,M3 2.4 mg (N = 11),1
same,TEAE Rectal haemorrhage; Moderate; %,M3 2.4 mg (N = 11),(0.0%)
same,TEAE Rectal haemorrhage; Moderate; n,M3 2.4 mg (N = 11),0
same,TEAE Rectal haemorrhage; PLT; %,M3 2.4 mg (N = 11),(0.0%)
same,TEAE Rectal haemorrhage; PLT; n,M3 2.4 mg (N = 11),0
same,TEAE Rectal haemorrhage; Severe; %,M3 2.4 mg (N = 11),(0.0%)
same,TEAE Rectal haemorrhage; Severe; n,M3 2.4 mg (N = 11),0
same,TEAE Tachycardia; Mild; %,M3 2.4 mg (N = 11),(9.1%)
same,TEAE Tachycardia; Mild; n,M3 2.4 mg (N = 11),1
same,TEAE Tachycardia; Moderate; %,M3 2.4 mg (N = 11),(0.0%)
same,TEAE Tachycardia; Moderate; n,M3 2.4 mg (N = 11),0
same,TEAE Tachycardia; PLT; %,M3 2.4 mg (N = 11),(0.0%)
same,TEAE Tachycardia; PLT; n,M3 2.4 mg (N = 11),0
same,TEAE Tachycardia; Severe; %,M3 2.4 mg (N = 11),(0.0%)
same,TEAE Tachycardia; Severe; n,M3 2.4 mg (N = 11),0
same,TEAE Tooth impacted; Mild; %,M3 2.4 mg (N = 11),(0.0%)
same,TEAE Tooth impacted; Mild; n,M3 2.4 mg (N = 11),0
same,TEAE Tooth impacted; Moderate; %,M3 2.4 mg (N = 11),(0.0%)
same,TEAE Tooth impacted; Moderate; n,M3 2.4 mg (N = 11),0
same,TEAE Tooth impacted; PLT; %,M3 2.4 mg (N = 11),(0.0%)
same,TEAE Tooth impacted; PLT; n,M3 2.4 mg (N = 11),0
same,TEAE Tooth impacted; Severe; %,M3 2.4 mg (N = 11),(0.0%)
same,TEAE Tooth impacted; Severe; n,M3 2.4 mg (N = 11),0
same,TEAE Toothache; Mild; %,M3 2.4 mg (N = 11),(0.0%)
same,TEAE Toothache; Mild; n,M3 2.4 mg (N = 11),0
same,TEAE Toothache; Moderate; %,M3 2.4 mg (N = 11),(0.0%)
same,TEAE Toothache; Moderate; n,M3 2.4 mg (N = 11),0
same,TEAE Toothache; PLT; %,M3 2.4 mg (N = 11),(0.0%)
same,TEAE Toothache; PLT; n,M3 2.4 mg (N = 11),0
same,TEAE Toothache; Severe; %,M3 2.4 mg (N = 11),(0.0%)
same,TEAE Toothache; Severe; n,M3 2.4 mg (N = 11),0
same,TEAE Vessel puncture site pain; Mild; %,M3 2.4 mg (N = 11),(0.0%)
same,TEAE Vessel puncture site pain; Mild; n,M3 2.4 mg (N = 11),0
same,TEAE Vessel puncture site pain; Moderate; %,M3 2.4 mg (N = 11),(0.0%)
same,TEAE Vessel puncture site pain; Moderate; n,M3 2.4 mg (N = 11),0
same,TEAE Vessel puncture site pain; PLT; %,M3 2.4 mg (N = 11),(0.0%)
same,TEAE Vessel puncture site pain; PLT; n,M3 2.4 mg (N = 11),0
same,TEAE Vessel puncture site pain; Severe; %,M3 2.4 mg (N = 11),(0.0%)
same,TEAE Vessel puncture site pain; Severe; n,M3 2.4 mg (N = 11),0
same,TEAE Vomiting; Mild; %,M3 2.4 mg (N = 11),(45.5%)
same,TEAE Vomiting; Mild; n,M3 2.4 mg (N = 11),5
same,TEAE Vomiting; Moderate; %,M3 2.4 mg (N = 11),(27.3%)
same,TEAE Vomiting; Moderate; n,M3 2.4 mg (N = 11),3
same,TEAE Vomiting; PLT; %,M3 2.4 mg (N = 11),(0.0%)
same,TEAE Vomiting; PLT; n,M3 2.4 mg (N = 11),0
same,TEAE Vomiting; Severe; %,M3 2.4 mg (N = 11),(0.0%)
same,TEAE Vomiting; Severe; n,M3 2.4 mg (N = 11),0
same,"TEAE Cough, maximum severity Mild, subjects %",M3 2.4 mg ALT-801 (N = 11),(9.1%)
same,"TEAE Cough, maximum severity Mild, subjects n",M3 2.4 mg ALT-801 (N = 11),1
same,"TEAE Cough, maximum severity Moderate, subjects %",M3 2.4 mg ALT-801 (N = 11),(0.0%)
same,"TEAE Cough, maximum severity Moderate, subjects n",M3 2.4 mg ALT-801 (N = 11),0
same,"TEAE Cough, maximum severity PLT, subjects %",M3 2.4 mg ALT-801 (N = 11),(0.0%)
same,"TEAE Cough, maximum severity PLT, subjects n",M3 2.4 mg ALT-801 (N = 11),0
same,"TEAE Cough, maximum severity Severe, subjects %",M3 2.4 mg ALT-801 (N = 11),(0.0%)
